{"source": "ChEMBL document CHEMBL5154701", "about": "“Thieno[2,3-d]pyrimidine-2,4(1H,3H)-dione Derivative Inhibits d-Dopachrome Tautomerase Activity and Suppresses the Proliferation of Non-Small Cell Lung Cancer Cells” (J Med Chem, 2022)", "test": "Solubility of the compound", "assay_type": "physicochemical", "data": [{"smiles": "Cc1c(-c2cccc(C(F)(F)F)c2)sc2[nH]c(=O)n(Cc3cccc4ccccc34)c(=O)c12", "values": [{"measurement": "solubility", "result": 3.3, "unit": "µg/mL"}]}]}
